Here are results for 1 compound from the SangsterLogP compilation.

Consider `O=C1NC(=O)C(c2ccccc2)N1` (stereo unspecified), for which the lipophilicity (logP) stood at 0.51.
